Structures are written as SMILES.

One test concerns rat pituitary cells. To be noted: cited from earlier work.
The test system of test [1] is rat anterior pituitary cells in primary culture. The note with it: cited from earlier work.
The next test deals with release of LH. Kind of test: Release of LH in rats after sc injection. Format: in vivo. To be noted: for LH % change: LHRH = 100. An excerpt: (§1) The data on the release of LH and FSH in rats by modifications of LHRH with one structural change are in Table II.
(§2) Exclusive of the salmon-LHRH, only one of the six decapeptides with two structural changes had significant activity.

A further test concerns release of FSH. Kind of test: Release of FSH in rats after sc injection. The note with it: for FSH % change: LHRH = 100. Format: in vivo.
Excerpt: as §1, §2

The mark [2] stands for this setting: fraction of the activities of LHRH or words.
Where [3] appears, read: 30 min. after sc injection, 100 ng.
Setting [4] is: 30 min. after sc injection, 1000 ng.
[5] abbreviates: 60 min. after sc injection, 3000 ng.
The mark [6] stands for this setting: release 30 min. after sc injection, dosage of peptide 100 ng.
[7] abbreviates: release 30 min. after sc injection, dosage of peptide 1000 ng.
The mark [8] stands for this setting: release 60 min. after sc injection, dosage of peptide 3000 ng.

Turning to `CC(C)C[C@H](NC(=O)CNC(=O)[C@H](Cc1ccc(O)cc1)NC(=O)[C@H](CO)NC(=O)[C@H](Cc1c[nH]c2ccccc12)NC(=O)[C@H](Cc1c[nH]cn1)NC(=O)[C@@H]1CCC(=O)N1)C(=O)N[C@@H](CCC(N)=O)C(=O)N1CCC[C@H]1C(=O)NCC(N)=O` [[Gln^8]--LHRH, pGlu--His--Trp--Ser--Tyr--Gly--Leu--Gln--Pro--Gly--NH2, reference compound], the “activities to release FSH compared with LHRH (Table I)” value with rat pituitary cells (setting [2]) was “extremely low activities”. In the test with rat pituitary cells (in vitro, rat pituitary cells, Miyamoto et al. (b)), the “activity to release FSH relative to P/O LHRH” value is 3.2%. In addition, the “activities to release LH compared with LHRH (Table I)” value in test [1] (setting [2]) is on record as “extremely low activities”. In addition, in test [1] (in vitro, rat pituitary cells, Sherwood et al. (a), Miyamoto et al. (b)), the “activity (potency) to release LH relative to P/O LHRH” value was 3.4%. The figures for the LH % change in the test with release of LH (setting [3]), with release of LH (setting [4]) and in the test with release of LH (setting [5]) were 5.5%, 15.2% and 7%, respectively. In addition, the LH in the test with release of LH (setting [6]) worked out at 0.6 ng/mL; in the test on release of LH (setting [7]), 7 ± 0.8 ng/mL; in the test on release of LH (setting [8]), 5.5 ng/mL. Further, the FSH % change came out at 58% in the test on release of FSH (setting [3]), 57% with release of FSH (setting [4]) and 49% with release of FSH (setting [5]). In addition, the FSH with release of FSH (setting [6]) came to 284 ng/mL; with release of FSH (setting [7]), 396 ng/mL; with release of FSH (setting [8]), 465 ng/mL.
